# Assay results as given in ChEMBL document CHEMBL1149388, “Synthesis and structure-activity relationships of 3-[(2-methyl-1,3-thiazol-4-yl)ethynyl]pyridine analogues as potent, noncompetitive metabotropic glutamate receptor subtype 5 antagonists; search for cocaine medications” (J Med Chem, 2006).
# Biological target: Metabotropic glutamate receptor 5 (Rattus norvegicus) (UniProt P31424)
# Test: Activity in agonist-induced phosphoinositide hydrolysis in CHO cells expressing mGluR5a
row,IC50,SMILES
1,0.462 µM,Cc1nc(C#Cc2cccnc2)cs1
2,0.039 µM,Cc1cccc(C#Cc2ccccc2)n1
